The record followed here is BindingDB's records for doi:10.1002/(SICI)1098-2396(199702)25:2 (University of Toronto, 1997).

Sequences of proteins named here, by UniProt entry; tags and fusion partners are left off.
UniProt P61169, whole entry: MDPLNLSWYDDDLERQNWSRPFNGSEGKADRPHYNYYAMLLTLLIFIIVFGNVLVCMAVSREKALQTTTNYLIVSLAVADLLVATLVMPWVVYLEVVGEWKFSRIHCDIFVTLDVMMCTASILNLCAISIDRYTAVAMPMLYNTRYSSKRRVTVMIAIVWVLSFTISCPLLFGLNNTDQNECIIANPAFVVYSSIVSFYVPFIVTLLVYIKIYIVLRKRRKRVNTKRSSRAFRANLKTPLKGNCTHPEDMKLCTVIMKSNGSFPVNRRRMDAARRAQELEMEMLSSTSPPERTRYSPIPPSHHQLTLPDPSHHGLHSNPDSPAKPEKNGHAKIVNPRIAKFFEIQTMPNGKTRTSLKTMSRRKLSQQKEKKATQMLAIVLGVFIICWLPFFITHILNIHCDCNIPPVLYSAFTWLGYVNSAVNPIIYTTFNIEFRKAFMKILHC

In the assay the target is D(2) dopamine receptor (Rattus norvegicus, UniProt P61169).

In turn, `OCCN1CCN(CC/C=C2/c3ccccc3Sc3ccc(C(F)(F)F)cc32)CC1` [(cis) 2-{4-[3-(2-Trifluoromethyl-thioxanthen-9-ylidene)-propyl]-piperazin-1-yl}-ethanol(Flupentixol)] returned a Ki of 300 nM.
As for `CNCC(O)c1ccc(O)c(O)c1` (configuration not stated) [EPINEPHRINE], the figure is 427 nM.
